The values below come from publication PMC5979958, “Identification of an Arg-Leu-Arg tripeptide that contributes to the binding interface between the cytokine MIF and the chemokine receptor CXCR4” (Scientific Reports, 2018).

This assay has as its system MIF/CXCR4-dependent JVM-3 lymphocyte chemotaxis. Put plainly: inhibition of MIF-mediated JVM-3 B cell chemotaxis by RLR-containing peptides. Conditions: 10 nM, 100 nM or 1 µM peptide; 16 nM WT-MIF; concentration dependence and relative potency of the two peptides. In kind it is cell-based, human. As for the experimental part: Together, the peptide competition experiment corroborated the notion that the RLR region directly contributes to functional MIF/CXCR4 interactions.
Migration assays using the CXCR4-expressing JVM-3 B cell line were performed in a transmigration well as previously described[32] using the following modifications. Briefly, JVM-3 B cells were sub-cultured and transferred to media without FBS. A migration assay was performed using 24-well format Transwell membranes (Sigma-Corning; 5 µm pore size) containing 1 × 10^6 JVM-3 cells in the upper chamber. […] As positive control, 8 nM CXCL12 was used. Wells without chemoattractant served as negative control and were used to normalize migration effects to ‘chemotactic index’ (number of migrated cells in the presence of chemoattractant divided by the number of migrated cells in the absence of the chemoattractant) – as described previously. In the inhibition assay, 10 nM, 100 nM, or 1 µM of the RLR-containing MIF peptides 76–90 ([…]) or 86–100 ([…]) were pre-incubated with WT-MIF for 30 min prior to the migration process and also added to the upper chamber. Cells were allowed to migrate for 24 h. After migration, cells in the lower chamber were counted using Countbright absolute counting beads (Invitrogen) using a FACSVerse flow cytometer (BD Biosciences, Heidelberg, Germany).

“Also recorded” adds a separate entry of the source.

For the sequence “ERLRISPDRVYINYY [MIF(86–100), RLR-spanning MIF peptide]”, the “competition with WT-MIF in JVM-3 chemotaxis, overall” value is reported as “concentration-dependent competition behavior; also recorded: block”. Then “YSKLLCGLLAERLRI [MIF(76–90), RLR-spanning MIF peptide]”, with “even more potent; also recorded: block”.
